The assay deals with recombinant eIF4E (Homo sapiens (Human), UniProt P06730). Briefly: Fluorescence polarization competition assay for eIF4E binding potency. As to the method: Compounds were screened for eIF4E binding potency using a fluorescence polarization competition assay. All binding reactions were performed in fluorescence polarization buffer (FPB) containing 20 mM Tris pH 7.5, 100 mM NaCl, 1 mM DTT, and 0.02% Tween-20. Final binding reactions contained 75 nM recombinant eIF4E (Beryllium, custom order), 20 nM EDA-m^7GDP-ATTO-550 (Jena Bioscience, NU-827-550) and varying concentrations of the inhibitory compound of interest. Final DMSO concentration in each reaction was 1%.
eIF4E protein was pre-incubated with EDA-m^7GDP-ATTO-550 in FPB at 2× concentrations for 5 minutes prior to the addition of compounds. Compounds (100×) were prepared using 3-fold serial dilutions in 100% DMSO, and subsequently diluted 1:50 in FPB to produce 2× stocks. 50 μl of 2× eIF4E/EDA-m^7GDP-ATTO-550 were transferred to the wells of a 96-well half-area black flat bottom polystyrene plate. 50 μl of 2× test compound were added, and binding reactions were allowed to equilibrate for 30 minutes at room temperature while protected from light. The fluorescent polarization signal was detected using a Victor 2 multi-label counter (Perkin Elmer) and the concentration necessary to achieve inhibition of eIF4E/EDA-m^7GDP-ATTO-550 binding by 50% (IC50) was calculated using data from an 8-point compound dilution series.
In Table 4A, IC50 values of less than 0.05 μM are labelled as “+++”, from 1 to 0.05 μM are labelled as “++”, and greater than 1 μM are labelled as “+”. ND=not determined.

By UniProt entry, the sequences of proteins in these tests, tags left out.
UniProt P06730, whole entry: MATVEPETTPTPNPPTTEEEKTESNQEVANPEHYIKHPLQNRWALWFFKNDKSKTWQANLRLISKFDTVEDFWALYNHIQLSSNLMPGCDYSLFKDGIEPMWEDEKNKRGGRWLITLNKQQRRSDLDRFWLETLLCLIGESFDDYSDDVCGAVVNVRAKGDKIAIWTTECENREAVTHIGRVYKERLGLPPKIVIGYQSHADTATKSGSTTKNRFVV

Where [1] appears, read: inhibition of eIF4E/EDA-m7GDP-ATTO-550 binding, calculated IC50 values, Table 4B.
[2] abbreviates: inhibition of eIF4E/EDA-m7GDP-ATTO-550 binding by 50%, Table 4B calculated values.
[3] abbreviates: read-out: elF4E FP, fluorescence polarization competition, 75 nM recombinant eIF4E, 20 nM EDA-m7GDP-ATTO-550, IC50 class.

Where two headings read alike, the source gives them in different places. Some results are limits rather than exact numbers.

Regarding `Cc1nc2cnc(N(c3cncs3)C3CCN(CC(F)F)CC3)c(C#N)c2c(=O)n1CC#Cc1ccc(Cl)cc1-c1ccnc2c(C(=O)O)csc12`, under setting [1], the IC50 was 15.1 nM.

`Cc1cc2cnc(N3CCN(C(CF)CF)CC3)c(C#N)c2c(=O)n1CC#Cc1ccc(Cl)cc1-c1ccnc2c(C(=O)O)csc12`: the IC50 under setting [1] is 26 nM.

For `Cc1cc(-c2cc(Cl)ccc2OCCn2c(C)nc3c(C)nccc3c2=O)c2scc(C(=O)O)c2n1`, the IC50 under setting [2] was 33.3 nM and the IC50 under setting [3] was less than 50 nM.

Regarding `Cc1nc(N2CC3(CNC3)C2)c(C#N)c2c(=O)n(CCOc3ccc(Cl)cc3-c3ccnc4c(C(=O)O)csc34)c(C)nc12`, the IC50 under setting [1] was 9.07 nM.

Regarding `Cc1cc2cnc(N3CCN(CC(C)(C)F)CC3)c(C#N)c2c(=O)n1CC#Cc1ccc(Cl)cc1-c1ccnc2c(C(=O)O)csc12`, the IC50 under setting [1] is 14.6 nM.

As for `Cc1nc2cnc(N3CC4(C3)CN(C(C)(C)CF)C4)c(C#N)c2c(=O)n1CCCc1ccc(Cl)cc1-c1ccnc2c(C(=O)O)csc12`, the IC50 runs as follows: under setting [2], 12.4 nM; under setting [3], less than 50 nM.

On to `Cc1cc2cnc(N3CCN(C(C)CF)CC3)c(C#N)c2c(=O)n1CC#Cc1ccc(Cl)cc1-c1ccnc2c(C(=O)O)csc12` (stereo not drawn), for which the IC50 under setting [1] was 31.6 nM.

`Cc1cc2cnc(N3CCN(C4(C)CC4)CC3)c(C#N)c2c(=O)n1CC#Cc1ccc(Cl)cc1-c1ccnc2c(C(=O)O)csc12`: the IC50 under setting [1] was 25.2 nM.

As for `Cc1nc2cnc(N3CCC([C@@H]4C[C@H]4C(F)(F)F)CC3)c(C#N)c2c(=O)n1CC#Cc1ccc(Cl)cc1-c1ccnc2c(C(=O)O)csc12` (relative stereo), the IC50 under setting [1] is 11.2 nM.

Regarding `Cc1cc2cnc(N3CCN(CC4(C)CC4)CC3)c(C#N)c2c(=O)n1CC#Cc1ccc(Cl)cc1-c1ccnc2c(C(=O)O)csc12`, the IC50 under setting [1] was 21.7 nM.

Turning to `Cc1nc2cnc(/C=C/C3(N(C)CC(F)F)CC3)c(C#N)c2c(=O)n1CCOc1ccc(Cl)cc1-c1ccnc2c(C(=O)O)csc12`, the IC50 under setting [2] is 13.2 nM and the IC50 under setting [3] is less than 50 nM.

Take `Cc1cc2cnc(N3CCN(C(C)(C)C(F)F)CC3)c(C#N)c2c(=O)n1CC#Cc1ccc(Cl)cc1-c1ccnc2c(C(=O)O)csc12`: the IC50 under setting [1] was 21.1 nM.

For the molecule `Cc1cc2c(=O)n(CCOc3ccc(Cl)cc3-c3cc(C)nc4c(C(=O)O)csc34)c(C)nc2c(C)n1`, the IC50 was 36.7 nM under setting [2] and less than 50 nM under setting [3].

With `C=C(CF)CN1CCN(c2ncc3cc(C)n(CC#Cc4ccc(Cl)cc4-c4ccnc5c(C(=O)O)csc45)c(=O)c3c2C#N)CC1`, the IC50 under setting [1] was 13.4 nM.

For `Cc1cc(-c2cc(Cl)ccc2OCCn2c(C)nc3cc(CN(C)C)c(OC(F)F)c(C#N)c3c2=O)c2scc(C(=O)O)c2n1`, the IC50 under setting [2] was 19.6 nM and the IC50 under setting [3] was less than 50 nM.

As for `Cc1nc2ccc(C(F)F)c(C#N)c2c(=O)n1CCOc1ccc(Cl)cc1-c1ccnc(C(=O)O)c1`, the IC50 under setting [2] is 7.89 nM and the IC50 under setting [3] is less than 50 nM.

On to `Cc1cc(-c2c(C(F)(F)F)cc3nc(C)n(CCOc4ccc(F)cc4-c4cc(C)nc5c(C(=O)O)csc45)c(=O)c3c2C#N)cc(C)n1`, for which the IC50 is 1.36 nM under setting [2] and less than 50 nM under setting [3].

On to `Cc1cc(-c2cc(Cl)ccc2OCCn2c(C)nc3cc(C(F)(F)F)c(OCc4ccccn4)nc3c2=O)c2scc(C(=O)O)c2n1`, for which the IC50 is 18.8 nM under setting [2] and less than 50 nM under setting [3].

Consider `CN(C)Cc1c(C(F)(F)F)cc2ncn(CC#Cc3ccc(Cl)cc3-c3ccnc4c(C(=O)O)csc34)c(=O)c2c1C#N`, for which the IC50 runs as follows: under setting [2], 73 nM; under setting [3], 50 to 1000 nM.

Consider `Cc1nc(N2CCN(CCF)CC2)c(C#N)c2c(=O)n(CCOc3ccc(Cl)cc3-c3ccnc4c(C(=O)O)csc34)c(C)nc12` [compound 1624], for which the IC50 is 30.7 nM under setting [2] and less than 50 nM under setting [3].

As to `Cc1cc2cnc(N3CCN(C4(CCF)CC4)CC3)c(C#N)c2c(=O)n1CC#Cc1ccc(Cl)cc1-c1ccnc2c(C(=O)O)csc12`, the IC50 under setting [1] is 14 nM.

For the molecule `COCc1cc(-c2cc(Cl)ccc2OCCn2c(C)nc3cc(C(F)(F)F)c(N4CCN(C)CC4)c(C#N)c3c2=O)c2sc(C)c(C(=O)O)c2c1`, the IC50 is 13 nM under setting [1] and less than 50 nM under setting [3].

Take `Cc1cc2cnc(N3CCN(CC(C)(F)CF)CC3)c(C#N)c2c(=O)n1CC#Cc1ccc(Cl)cc1-c1ccnc2c(C(=O)O)csc12` (stereo not drawn): the IC50 under setting [1] was 17 nM.

With `Cc1cc(-c2cc(Cl)ccc2OCCn2c(C)nc3cc(C(F)(F)F)c(N4CCC4)nc3c2=O)c2scc(C(=O)O)c2n1`, the IC50 reads like this: under setting [2], 45.1 nM; under setting [3], less than 50 nM.

On to `Cc1cc2cnc(N3CCN(C(C)(C)CCF)CC3)c(C#N)c2c(=O)n1CC#Cc1ccc(Cl)cc1-c1ccnc2c(C(=O)O)csc12`, for which, under setting [1], the IC50 is 6.15 nM.

For the molecule `Cc1nc2cnc(N(C)[C@@H]3C[C@H]4CC[C@@H](C3)N4CC(F)F)c(C#N)c2c(=O)n1CC#Cc1ccc(Cl)cc1-c1ccnc2c(C(=O)O)csc12` (relative stereo), under setting [1], the IC50 is 14.6 nM.

Turning to `Cc1cc2cnc(N3CCN(C4(CF)CC4)CC3)c(C#N)c2c(=O)n1CC#Cc1ccc(Cl)cc1-c1ccnc2c(C(=O)O)csc12`, under setting [1], the IC50 is 32 nM.

In the case of `Cc1nc2ccc(N(C)C3CCN(CC(C)(F)F)CC3)cc2c(=O)n1CCOc1ccc(Cl)cc1-c1ccnc2c(C(=O)O)csc12`, the IC50 is, setting by setting: under setting [2], 49.9 nM; under setting [3], less than 50 nM.

Turning to `Cc1cc2cnc(N3CCN(CCC(F)F)CC3)c(C#N)c2c(=O)n1CC#Cc1ccc(Cl)cc1-c1ccnc2c(C(=O)O)csc12`, the IC50 under setting [1] is 18.4 nM.

`Cc1nc2cc(C(F)(F)F)c(N3CCN(C4CC4)CC3)c(C#N)c2c(=O)n1CCOc1ccc(Cl)cc1-c1ccnc2c(C(=O)O)csc12` [compound 1291]: the IC50 was 14.7 nM under setting [2] and less than 50 nM under setting [3].

On to `Cc1nc2cnc(N3CCC(C4(CF)CC(F)(F)C4)CC3)c(C#N)c2c(=O)n1CCOc1ccc(Cl)cc1-c1ccnc2c(C(=O)O)csc12`, for which, under setting [1], the IC50 was 11.7 nM.

As for `Cc1nc2cnc(N(C)C3CCN(CC(F)(F)C(C)C)CC3)c(C#N)c2c(=O)n1CC#Cc1ccc(Cl)cc1-c1ccnc2c(C(=O)O)csc12`, the IC50 was 10.7 nM under setting [2] and less than 50 nM under setting [3].

On to `Cc1nc2cnc(N(C)C3CCN(C)CC3)c(C#N)c2c(=O)n1CC#Cc1ccc(Cl)cc1-c1ccnc2c(C(=O)O)csc12` [compound 1495], for which, under setting [1], the IC50 is 16.7 nM.

As for `Cc1cc2cnc(N3CCN(C(C)(C)CF)CC3)c(C#N)c2c(=O)n1CC#Cc1ccc(Cl)cc1-c1ccnc2c(C(=O)O)csc12`, under setting [1], the IC50 is 39.1 nM.

For the molecule `Cc1cc2cnc(N3CCN(C4CC4(C)C)CC3)c(C#N)c2c(=O)n1CC#Cc1ccc(Cl)cc1-c1ccnc2c(C(=O)O)csc12` (stereo not drawn), the IC50 under setting [1] was 31.6 nM.

Turning to `Cc1cc(-c2cc(Cl)ccc2OCCn2c(C)nc3cc(C(F)(F)F)c(-c4cnccn4)nc3c2=O)c2scc(C(=O)O)c2n1`, the IC50 under setting [2] is 10.6 nM and the IC50 under setting [3] is less than 50 nM.

On to `CCS(=O)(=O)NC(=O)c1csc2c(-c3cc(Cl)ccc3C#CCn3c(C)nc4cnc(N(C)C5CCN(CC(C)(F)F)CC5)c(C#N)c4c3=O)ccnc12`, for which the IC50 under setting [1] is 3.96 nM.

With `CSc1cc(C(F)(F)F)cc2nc(C)n(CCOc3ccc(Cl)cc3-c3ccnc4c(C(=O)O)csc34)c(=O)c12`, the IC50 is 67.4 nM under setting [2] and 50 to 1000 nM under setting [3].

Regarding `Cc1nc2cnc(N3CC4(CCC4C4CC4)C3)c(C#N)c2c(=O)n1CCOc1ccc(Cl)cc1-c1ccnc2c(C(=O)O)csc12` (stereo not drawn), the IC50 under setting [1] is 15.1 nM.

Take `Cc1cc2cc(OC(F)F)c(F)c(C#N)c2c(=O)n1CCOc1ccc(Cl)cc1-c1ccnc2c(C(=O)O)csc12`: the IC50 was 48.8 nM under setting [2] and less than 50 nM under setting [3].

`Cc1nc2cc(C(F)(F)F)cc(C#N)c2c(=O)n1CCOc1ccc(Cl)cc1-c1cccc2c(C(=O)O)coc12`: the IC50 is 47.4 nM under setting [2] and less than 50 nM under setting [3].

As for `Cc1nc2cnc(N3CCC4(CC3)CN(CC(C)(F)F)C4)c(C#N)c2c(=O)n1CC#Cc1ccc(Cl)cc1-c1ccnc2c(C(=O)NS(C)(=O)=O)csc12`, the IC50 under setting [1] was 18 nM.

`Cc1cc(-c2c(C(F)(F)F)cc3nc(C)n(CCOc4cc(F)c(F)cc4-c4cc(C)nc5c(C(=O)O)csc45)c(=O)c3c2C#N)cc(C)n1`: the IC50 by setting is: under setting [2], 39.7 nM; under setting [3], less than 50 nM.

(Values after patent US11286268B1, “EIF4E-inhibiting compounds and methods” (EFFECTOR THERAPEUTICS, INC., priority 2019, dated 2022).)
